Measured values from ChEMBL document CHEMBL1153689, “Conversion of the phytoestrogen coumestrol into a selective estrogen receptor modulator (SERM) by attachment of an amine-containing sidechain” (Bioorg Med Chem Lett, 1996).

Protein sequences, listed by entry. Tags and fused reporters are not part of them.
UniProt Q92731, whole entry, looked up: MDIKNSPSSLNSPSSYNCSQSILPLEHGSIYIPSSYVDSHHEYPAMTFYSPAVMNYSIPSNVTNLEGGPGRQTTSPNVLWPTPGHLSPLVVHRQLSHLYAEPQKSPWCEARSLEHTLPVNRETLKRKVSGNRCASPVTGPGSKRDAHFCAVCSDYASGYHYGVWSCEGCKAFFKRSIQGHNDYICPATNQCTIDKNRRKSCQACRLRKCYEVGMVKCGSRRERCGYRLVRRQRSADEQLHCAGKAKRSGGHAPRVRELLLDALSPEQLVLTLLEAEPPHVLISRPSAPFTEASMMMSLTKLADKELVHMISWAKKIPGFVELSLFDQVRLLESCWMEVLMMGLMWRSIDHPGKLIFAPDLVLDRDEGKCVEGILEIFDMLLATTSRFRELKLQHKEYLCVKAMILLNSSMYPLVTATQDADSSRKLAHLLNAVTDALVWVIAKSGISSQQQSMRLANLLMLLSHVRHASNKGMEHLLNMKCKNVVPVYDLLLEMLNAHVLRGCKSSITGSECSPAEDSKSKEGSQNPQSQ
UniProt P03372, whole entry, looked up: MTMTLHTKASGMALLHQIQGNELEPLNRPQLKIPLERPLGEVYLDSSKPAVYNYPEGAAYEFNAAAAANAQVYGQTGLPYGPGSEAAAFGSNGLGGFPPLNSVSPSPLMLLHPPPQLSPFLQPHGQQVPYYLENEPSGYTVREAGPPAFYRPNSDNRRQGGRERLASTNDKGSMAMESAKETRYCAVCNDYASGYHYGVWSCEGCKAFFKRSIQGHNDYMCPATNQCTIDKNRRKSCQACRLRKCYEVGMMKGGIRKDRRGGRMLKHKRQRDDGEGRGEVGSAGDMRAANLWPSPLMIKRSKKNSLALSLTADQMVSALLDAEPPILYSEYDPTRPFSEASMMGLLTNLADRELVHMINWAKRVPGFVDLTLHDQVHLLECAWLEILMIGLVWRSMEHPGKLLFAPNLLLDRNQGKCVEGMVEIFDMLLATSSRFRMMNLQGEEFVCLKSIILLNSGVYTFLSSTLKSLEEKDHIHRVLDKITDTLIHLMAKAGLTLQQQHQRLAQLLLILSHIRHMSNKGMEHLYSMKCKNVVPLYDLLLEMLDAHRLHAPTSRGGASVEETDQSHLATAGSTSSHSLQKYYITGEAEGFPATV

How the values were obtained:
[1] = biological target: T1, Estrogen receptor (Homo sapiens) (UniProt Q92731+P03372); experiment: Binding affinity for estrogen receptor in MCF-7 cell lysate relative to estradiol; assay type: cell-based
[2] = biological target: T1, Estrogen receptor (Homo sapiens); experiment: Binding affinity for estrogen receptor in MCF-7 cell lysate relative to coumestrol; assay type: cell-based

Q: With `Oc1ccc2c(c1)OC(c1ccc(OCCN3CCCCC3)cc1)c1c-2oc2cc(O)ccc12` (configuration not stated) as the compound, how does the RBA [1] read?
A: Its RBA is 7.2%.

Q: And the RBA [2]?
A: Its RBA is 13.2%.
